Publication PMC5402964

By UniProt entry, the sequences of proteins in these tests, tags left out. Where a name states a change or a piece, a line headed by the entry shows the natural chain unless it says otherwise.
UniProt P06756: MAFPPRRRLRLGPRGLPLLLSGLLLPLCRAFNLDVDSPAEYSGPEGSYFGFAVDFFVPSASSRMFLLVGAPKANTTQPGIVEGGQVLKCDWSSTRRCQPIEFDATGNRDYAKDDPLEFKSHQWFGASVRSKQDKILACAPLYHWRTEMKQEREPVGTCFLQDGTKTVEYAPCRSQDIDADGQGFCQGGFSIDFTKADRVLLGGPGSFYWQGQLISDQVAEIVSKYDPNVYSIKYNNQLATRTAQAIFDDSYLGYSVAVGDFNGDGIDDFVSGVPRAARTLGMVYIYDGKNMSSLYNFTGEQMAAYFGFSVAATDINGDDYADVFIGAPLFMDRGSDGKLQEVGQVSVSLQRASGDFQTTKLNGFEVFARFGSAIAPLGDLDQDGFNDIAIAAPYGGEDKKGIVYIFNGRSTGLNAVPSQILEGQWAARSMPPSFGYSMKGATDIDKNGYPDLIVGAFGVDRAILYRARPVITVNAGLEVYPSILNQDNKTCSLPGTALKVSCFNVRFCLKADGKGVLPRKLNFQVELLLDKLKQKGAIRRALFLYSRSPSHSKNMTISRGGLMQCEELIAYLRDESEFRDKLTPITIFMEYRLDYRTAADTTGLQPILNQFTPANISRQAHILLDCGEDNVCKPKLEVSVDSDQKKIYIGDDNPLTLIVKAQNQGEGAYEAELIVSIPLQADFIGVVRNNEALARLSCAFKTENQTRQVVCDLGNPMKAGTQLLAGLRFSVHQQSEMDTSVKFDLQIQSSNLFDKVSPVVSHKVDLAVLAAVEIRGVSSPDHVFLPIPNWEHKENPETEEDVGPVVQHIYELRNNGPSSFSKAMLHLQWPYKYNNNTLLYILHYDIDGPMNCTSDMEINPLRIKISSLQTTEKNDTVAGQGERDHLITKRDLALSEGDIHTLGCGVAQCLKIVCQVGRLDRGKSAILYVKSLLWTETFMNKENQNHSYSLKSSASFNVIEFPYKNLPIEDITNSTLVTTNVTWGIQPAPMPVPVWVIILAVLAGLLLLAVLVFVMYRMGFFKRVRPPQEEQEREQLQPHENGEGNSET

What was measured:
[1] = target: αVβ3 integrin (UniProt P06756)
[2] = target: αVβ3 integrin (UniProt P06756); test: SPR; BIAcore T200; integrins amine-coupled to a CM5 chip (α5β1 at pH 4.5, 4,325.2 RU; αVβ3 at pH 4.0, 6,677.1 RU); DisBa-01 0.1-100 μM injected; HBS-EP (0.01 M Hepes pH 7.4, 0.15 M NaCl, 0.005 (v/v) Surfactant P20), 25°C, 30 μL/min; DisBa-01 assumed monomeric, MR 12,000 Da

Q: What does the source list for “DisBa-01 (disintegrin of Bothrops alternatus), recombinant His-tag protein (natural protein)”?
A: decrease in migration speed of OSCC (SCC25) cells on fibronectin-coated dishes in the presence of DisBa-01 (1 or 2 μM, in the media or in the substrate) [1]: 40%; fold affinity against α5β1 integrin [2]: 100 fold
